Reference: publication PMC9305538 (Chembiochem, 2022)

Legend:
[1] = tested on: NC(=O)c1ccc[n+]([C@@H]2O[C@H](COP(=O)([O-])OP(=O)(O)OC[C@H]3O[C@@H](n4cnc5c(N)ncnc54)[C@H](O)[C@@H]3O)[C@@H](O)[C@H]2O)c1; assay: purified protein; details: 125 mM formate, 50 mM phosphate pH 7, 25 °C, apparent
[2] = tested on: O=CO; assay: purified protein; details: 1 mM NAD+, 50 mM phosphate pH 7, 25 °C, apparent

Substance FDHC23S ([Candida] boidinii; C23S) has a Km [1] of 50 ± 20 µM, a kcat [1] of 1.93 ± 0.12 s⁻¹ and a Km [2] of 4230 ± 70 µM. The kcat [2] was 1.78 s⁻¹ and the kcat/Km [2] was 420 M⁻¹ s⁻¹.
